Target: complement protein C5 (in human serum) (human) (UniProt P01031)
Assay: cell-based or functional assay

Eculizumab (Targetmol, T9915) (antibody)
IC50, alternative pathway hemolysis in human serum: 50 nM
IC50, classical pathway hemolysis in human serum: 57 nM
IC50, lectin pathway hemolysis in human serum: 45 nM

Reference: patent US20250034239A1
